This passage reports EC50 results from patent publication US20210024483A1, “HETEROCYLCOALKENYL DERIVATIVES USEFUL AS AGONISTS OF THE GPR120 AND / OR GPR40” (Janssen Pharmaceutica NV, priority 2018, published 2021).

By UniProt entry, the sequences of proteins in these tests, tags left out. Where a name states a change or a piece, a line headed by the entry shows the natural chain unless it says otherwise. Residues count along the entry.
UniProt O14842, whole entry: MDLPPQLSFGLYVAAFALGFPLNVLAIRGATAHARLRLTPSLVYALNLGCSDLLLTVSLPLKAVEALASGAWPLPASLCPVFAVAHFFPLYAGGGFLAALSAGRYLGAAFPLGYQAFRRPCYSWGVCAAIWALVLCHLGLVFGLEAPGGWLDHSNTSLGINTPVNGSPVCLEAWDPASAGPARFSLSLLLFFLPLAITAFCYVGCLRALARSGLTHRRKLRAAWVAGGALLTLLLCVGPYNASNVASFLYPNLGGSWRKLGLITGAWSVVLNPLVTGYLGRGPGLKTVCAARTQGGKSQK
UniProt Q5NUL3, whole entry: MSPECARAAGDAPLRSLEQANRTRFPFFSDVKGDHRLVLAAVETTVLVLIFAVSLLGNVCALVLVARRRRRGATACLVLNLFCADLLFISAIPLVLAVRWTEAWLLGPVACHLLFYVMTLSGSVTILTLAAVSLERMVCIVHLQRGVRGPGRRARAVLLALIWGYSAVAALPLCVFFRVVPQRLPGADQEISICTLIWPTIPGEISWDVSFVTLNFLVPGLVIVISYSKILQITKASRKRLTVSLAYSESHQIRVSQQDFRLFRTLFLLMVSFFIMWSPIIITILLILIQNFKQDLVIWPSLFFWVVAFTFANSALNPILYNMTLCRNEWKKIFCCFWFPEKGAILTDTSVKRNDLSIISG
UniProt Q5NUL3, 1-377 isoform 1: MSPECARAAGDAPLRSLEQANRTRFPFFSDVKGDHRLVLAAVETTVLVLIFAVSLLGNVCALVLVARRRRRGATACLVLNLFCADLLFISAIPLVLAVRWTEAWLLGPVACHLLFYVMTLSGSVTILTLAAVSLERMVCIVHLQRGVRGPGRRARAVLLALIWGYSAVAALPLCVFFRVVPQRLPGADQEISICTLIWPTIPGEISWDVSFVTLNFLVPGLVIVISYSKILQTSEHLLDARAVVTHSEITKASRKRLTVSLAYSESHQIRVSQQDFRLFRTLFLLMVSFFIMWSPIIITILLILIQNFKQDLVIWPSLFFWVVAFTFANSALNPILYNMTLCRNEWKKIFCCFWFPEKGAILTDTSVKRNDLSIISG

One experiment deals with GPR40 (UniProt O14842). The experiment is described as follows: GPR40 Calcium Flux Assay. As to conditions: read-out: GPR40 Calcium Flux Assay EC50; transfected HEK293 cells stably expressing human or rat GPR40; species not given.
Experiment [1] addresses Human GPR120 short form (short splice variant, NM_001195755.1) (Homo sapiens, UniProt Q5NUL3). As to the kind of experiment: Human GPR120 Calcium Flux Assay.
Experiment [2] deals with long form of human GPR120 (Homo sapiens, UniProt Q5NUL3). As to the kind of experiment: Human GPR120 DiscoveRx PathHunter Beta-Arrestin Assay, Procedure A. To be noted: read-out: Human GPR120 Beta-Arrestin Assay Procedure A EC50, PathHunter CHO-K1 GPR120 cells, 3000 cells per well.
Experiment [3] deals with short form of the GPR120 receptor (Homo sapiens, UniProt Q5NUL3). The experiment is described as follows: Human GPR120 DiscoveRx PathHunter Beta-Arrestin Assay, Procedure B. To be noted: read-out: Human GPR120 Beta-Arrestin Assay Procedure B EC50, PathHunter CHO-K1 GPR120S cells, 5000 cells/well.
Setting [4] is: read-out: Human GPR120 Calcium Flux Assay Procedure B EC50, HEK-293 cells, 4200 cells/well.
Where [5] appears, read: read-out: Human GPR120 Calcium Flux Assay Procedure A EC50, HEK-293 cells, 2500 cells/well.

Like-named read-outs stand apart in the source and are kept apart here.

For `Cc1c(CCC(=O)O)ccc(OCC2=C(c3ccc(Cl)cc3)CCOCC2)c1C`, the EC50 at GPR40 was more than 10000 nM; in experiment [1] (setting [4]), 94 nM.
Consider `Cc1c(CCC(=O)O)ccc(OCC2=C(c3ccccc3)COC2)c1C`, for which the EC50 in experiment [1] (setting [5]) is 1040 nM; in experiment [1] (setting [4]) it was 226 nM; in experiment [2], 446 nM.
`Cc1ccc(C2=C(COc3ccc(CCC(=O)O)c(C(F)(F)F)c3)CCOC2)c(C(C)C)c1`: the EC50 in experiment [1] (setting [4]) is more than 5000 nM.
`O=C(O)CCc1ccc(OCC2=C(C3CCCC3)COC2)cc1C(F)(F)F`: the EC50 on GPR40 came out at 364 nM; in experiment [1] (setting [4]), 1450 nM.
As to `O=C(O)CCc1cc(F)c(OCC2=C(c3ccc(Cl)cc3)COCC2)c(F)c1`, the EC50 came to 159 nM in experiment [3] and 193 nM in experiment [1] (setting [4]).
Take `Cc1ccc(C2=C(COc3ccc(CCC(=O)O)c(C)c3C)CCOC2)cc1F`: the EC50 on GPR40 was more than 10000 nM; in experiment [1] (setting [4]), 155 nM.
For `O=C(O)CCc1ccc(OCC2=C(C3CCCC3)COCC2)cc1C(F)(F)F`, the results for the EC50 (at GPR40; in experiment [1] (setting [4])) were 70 nM and 478 nM, respectively.
Consider `O=C(O)CCc1ccc(OCC2=C(c3ccc(Cl)cc3)COCC2)cc1CC1CC1`, for which the EC50 in experiment [1] (setting [4]) came to 778 nM.
On the same count and under the same terms, under `Cc1ccc(C2=C(COc3ccc(CCC(=O)O)c(C(F)(F)F)c3)CCOC2)c(C)c1` stands more than 5000 nM; under `O=C(O)CCc1ccc(OCC2=C(c3ccc(Cl)cc3)CCOCC2)cc1C(F)(F)F`, 684 nM.
Take `O=C(O)CCc1ccc(OCC2=C(C3CCCC3)COC2)cc1F`: the EC50 at GPR40 is 1240 nM; in experiment [1] (setting [4]), 503 nM.
For the compound `Cc1ccc(C2=C(COc3ccc(CCC(=O)O)c(C(F)(F)F)c3)CCOC2)c(-c2ccccc2)c1`, the EC50 in experiment [1] (setting [4]) was more than 5000 nM.
Still for that read-out and setting: the result for `O=C(O)CCc1cc(F)c(OCC2=C(c3ccc(F)cc3)CS(=O)(=O)C2)c(F)c1` reads more than 5000 nM; that for `Cc1cc(CCC(=O)O)ccc1OCC1=C(c2ccc(F)cc2)CS(=O)(=O)C1`, 3980 nM.
Turning to `Cc1ccc(C2=C(COc3ccc(CCC(=O)O)c(F)c3F)CCOCC2)cc1F`, the values for the EC50 (on GPR40; in experiment [1] (setting [4])) were 3670 nM and 379 nM, respectively.
On the same counts, the results for `Cc1ccc(C2=C(COc3ccc(CCC(=O)O)c(C(F)(F)F)c3)CCOCC2)cc1F` are 2030 nM and 948 nM.
Regarding `Cc1ccc(C2=C(COc3ccc(CCC(=O)O)c(C(F)(F)F)c3)CCOC2)c(F)c1`, the EC50 in experiment [1] (setting [4]) amounted to 1120 nM.
With `Cc1ccc(C2=C(COc3cc(C)c(CCC(=O)O)cc3F)CCOCC2)cc1F`, the EC50 on GPR40 was 4140 nM; in experiment [1] (setting [4]), 670 nM.
On to `O=C(O)CCc1ccc(OCC2=C(c3ccccc3)COCC2)cc1C(F)(F)F`, for which the EC50 in experiment [1] (setting [4]) is 546 nM.
In the case of `Cc1ccc(C2=C(COc3ccc(CCC(=O)O)c(F)c3F)CCOC2)cc1F`, the EC50 was more than 10000 nM at GPR40 and 160 nM in experiment [1] (setting [4]).
On to `Cc1ccc(C2=C(COc3ccc(CCC(=O)O)c(C(F)(F)F)c3)CCOC2)cc1-c1ccccc1`, for which the EC50 in experiment [1] (setting [4]) is more than 5000 nM.
Still for that read-out and setting: the result for `Cc1ccc(C2=C(COc3ccc(CCC(=O)O)c(C(F)(F)F)c3)CCOC2)cc1C(C)C` reads 2900 nM.
With `Cc1c(CCC(=O)O)ccc(OCC2=C(c3ccc(Cl)cc3)COC2)c1C`, the EC50 is 387 nM in experiment [1] (setting [5]), 92 nM in experiment [1] (setting [4]) and 101 nM in experiment [2].
For `Cc1ccc(C2=C(COc3c(F)cc(CCC(=O)O)cc3F)CCOC2)cc1F`, the EC50 on GPR40 stood at 4320 nM; in experiment [1] (setting [4]), 131 nM.
On the same counts, the results for `Cc1cc(OCC2=C(C3CCCC3)COC2)ccc1CCC(=O)O` are 1130 nM and 709 nM.
Regarding `O=C(O)CCc1ccc(OCC2=C(C3C=CCC3)CCOC2)cc1Cl` (stereo not shown), the results for the EC50 (on GPR40; in experiment [1] (setting [4])) were 272 nM and 515 nM, respectively.
As for `Cc1ccc(C2=C(COc3ccc(CCC(=O)O)c(C(F)(F)F)c3)CCOC2)cc1`, the EC50 in experiment [1] (setting [4]) was determined as 429 nM.
Still for that read-out and setting: under `Cc1ccc(C2=C(COc3ccc(CCC(=O)O)c(C(F)(F)F)c3)CCOCC2)cc1` stands 621 nM.
Regarding `O=C(O)CCc1ccc(OCC2=C(C3C=CCC3)CCOC2)cc1C(F)(F)F` (stereo not shown), the EC50 on GPR40 was determined as 150 nM; in experiment [1] (setting [4]) it was 1020 nM.
With `O=C(O)CCc1ccc(OCC2=C(C3CCCC3)CCOCC2)cc1C(F)(F)F`, the EC50 on GPR40 is 187 nM; in experiment [1] (setting [4]) it was 452 nM.
On to `O=C(O)CCc1cc(F)c(OCC2=C(c3ccc(F)cc3)CSC2)c(F)c1`, for which the figures for the EC50 in experiment [3] and in experiment [1] (setting [4]) were 317 nM and 309 nM, respectively.
Take `O=C(O)CCc1ccc(OCC2=C(c3ccc(Cl)cc3)COCC2)cc1C(F)(F)F`: the results for the EC50 in experiment [3] and in experiment [1] (setting [4]) were 894 nM and 599 nM, respectively.
`Cc1ccc(C2=C(COc3c(F)cc(CCC(=O)O)cc3F)CCOCC2)cc1F`: the EC50 on GPR40 stood at 2590 nM; in experiment [1] (setting [4]), 274 nM.
